In patent US20160215111A1, “MATERIALS AND METHODS” (THE UNIVERSITY OF SYDNEY, priority 2013, published 2016):

System: Human dermal fibroblasts
Settings: allylamine vapor treated PIII PTFE, no protein, over the durations of cell attachment analysis

C=CCN [allylamine]
toxicity to cells of allylamine treatment of the surface: non-toxic to cells
